Here are results for one molecule from ChEMBL document CHEMBL4219032, “Triple Reuptake Inhibitors as Potential Therapeutics for Depression and Other Disorders: Design Paradigm and Developmental Challenges” (J Med Chem, 2018).

Chains of the proteins cited; added tags and fusions are not shown.
UniProt Q9WTR4, whole entry: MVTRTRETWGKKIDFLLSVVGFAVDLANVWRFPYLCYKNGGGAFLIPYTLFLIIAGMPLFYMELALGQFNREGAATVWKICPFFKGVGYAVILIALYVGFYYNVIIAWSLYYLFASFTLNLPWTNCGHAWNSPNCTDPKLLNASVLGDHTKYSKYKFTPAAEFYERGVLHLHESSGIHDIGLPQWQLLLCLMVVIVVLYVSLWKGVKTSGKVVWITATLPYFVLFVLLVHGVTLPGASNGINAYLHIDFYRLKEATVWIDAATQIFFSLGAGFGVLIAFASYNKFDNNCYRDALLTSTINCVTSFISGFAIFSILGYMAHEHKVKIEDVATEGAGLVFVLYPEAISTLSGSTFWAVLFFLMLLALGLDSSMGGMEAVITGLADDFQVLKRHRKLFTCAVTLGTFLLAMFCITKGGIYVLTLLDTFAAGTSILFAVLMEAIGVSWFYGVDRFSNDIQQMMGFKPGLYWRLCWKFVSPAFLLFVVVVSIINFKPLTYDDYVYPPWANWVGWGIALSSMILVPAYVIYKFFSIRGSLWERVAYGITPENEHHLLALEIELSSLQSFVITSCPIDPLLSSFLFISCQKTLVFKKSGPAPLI

In this assay the target is Norepinephrine transporter (Rattus norvegicus, UniProt Q9WTR4). The assay is described as follows: Inhibition of rat brain NET assessed as reduction of [3H]-NE re-uptake preincubated for 30 mins followed by [3H]-NE addition measured after 5 mins by scintillation counting.

A value given as a limit tells only on which side of the number the result lay.

Consider `NC(=O)C[S+]([O-])C(c1ccccc1)c1ccccc1` (stereo unspecified) [MODAFINIL], for which the half-inhibitory concentration (IC50) is greater than 10 µM.

A word on the IC50: it is the concentration that gives 50% inhibition.
